# Source: patent publication US5965720A, “Oligonucleotide N3'→P5' phosphoramidates” (Lynx Therapeutics, Inc., priority 1997, dated 1999)
# System: snake venom phosphodiesterase
# Assay: Stability toward hydrolysis by snake venom phosphodiesterase (RP HPLC)
# Type: in vitro ADME, Crotalus durissus
# Details: after 10 minutes; 0.22 U phosphodiesterase, 10 mM Tris HCl, 10 mM MgCl2
substance,measurement,value
phosphodiester decathymidilic acid,extent of hydrolysis by snake venom phosphodiesterase,completely hydrolyzed
